Measured values: publication PMC10313052, “Filarial DAF-12 sense the host serum to resume iL3 development during infection” (PLOS Pathogens, 2023)

Protein sequences, listed by entry. Tags and fused reporters are not part of them. Residues count along the entry.
UniProt A0A7D0JJL8, 587-828 limits assumed: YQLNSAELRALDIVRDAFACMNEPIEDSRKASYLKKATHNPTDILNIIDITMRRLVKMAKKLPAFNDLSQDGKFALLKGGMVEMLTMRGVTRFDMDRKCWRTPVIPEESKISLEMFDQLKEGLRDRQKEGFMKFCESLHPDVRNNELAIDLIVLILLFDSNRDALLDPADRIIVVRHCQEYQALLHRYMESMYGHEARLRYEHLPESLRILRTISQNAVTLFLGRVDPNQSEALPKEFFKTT

Target: DimDAF-12 (Dirofilaria immitis, UniProt A0A7D0JJL8)
Type: cell-based
Conditions: read-out: EC50 (logEC50 SE) (converted)

Substance: 3β-hydroxy-5-cholestenoic acid
- EC50: 192 nM
